Assay [1] is described as follows: Tanguay_ZF_120hpf_ActivityScore_legacy: (Legacy) Oregon State University Tanguay Lab 120 Hour Post-fertilization zebrafish Assay Score for Activity (AID 2283742).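 On AC50: static exposure from 6 hpf until 120 hpf at 28 °C.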 The procedure:
Tanguay_ZF_120hpf_legacy is a whole embryo, multiplexed endpoint assay using zebrafish larvae exposed for 120 hours post fertilization on a 96-well plate.Tanguay_ZF_120hpf_ActivityScore_legacy is one of one assay component(s) measured or calculated from the Tanguay_ZF_120hpf_legacy assay. It is designed to make measurements of developmental malformations and mortality as detected with brightfield microscopy and combines scoring from 18 other assay components measuring more specific morphologies.Data from the assay component Tanguay_ZF_120hpf_ActivityScore_legacy was analyzed into 1 assay endpoints. This assay endpoint, Tanguay_ZF_120hpf_ActivityScore_legacy, was analyzed in the positive analysis fitting direction relative to DMSO as the negative control and baseline of activity. Using a type of morphology reporter, gain-of-signal activity can be used to understand changes in developmentals as they relate to the whole embryo. To generalize the intended target to other relatable targets, this assay endpoint is annotated to the zebrafish development intended target family, where the subfamily is embryonic morphogenesis and mortality.
Zebrafish husbandry: Tropical 5D wild-type adult zebrafish were housed in at an approximate density of 1000 per 100 gallon tank at the Sinnhuber Aquatic Research Laboratory, Oregon State University, Corvallis, OR. Each tank was kept at standard laboratory conditions of 28C on a 14-h light/10-h dark photoperiod in fish water consisting of reverse osmosis water supplemented with a commercially available salt (Instant Ocean). Spawning funnels were placed into the tanks the night prior, and embryos were collected and staged. To increase bioavailability, the chorion was enzymatically removed using pronase (63.6mg/ml, >/= 3.5U/mg, Sigma-Aldrich: P5147) at 4 hours post fertilization (hpf) using a custom automated dechorionator.Chemical exposures: Six hpf dechorionated embryos were placed 1 embryo per well in a 96-well plate prefilled with 90 ul of EM using automated embryo placement systems (AEPS). […] At 24 hpf, embryos were assessed for photomotor response using a custom photomotor response analysis tool (PRAT) and for developmental toxicity endpoints (MO24: mortality at 24 hpf, DP: developmental progression, SM: spontaneous movement, and NC: notochord distortion). At 120 hpf, locomotor activity was measured using Viewpoint Zebralab and assessed for 18 endpoints. Zebrafish acquisition and analysis program (ZAAP), a custom program designed to inventory, acquire, and manage zebrafish data, was used to collect developmental endpoints as either present or absent (i.e., binary responses were recorded). If mortality occurred for an embryo (at either 24 or 120 hpf), the non-mortality endpoints were not measured.

The chains behind the UniProt entries cited, without tags or fusion partners. Where a name states a change or a piece, a line headed by the entry shows the natural chain unless it says otherwise.
UniProt P04406: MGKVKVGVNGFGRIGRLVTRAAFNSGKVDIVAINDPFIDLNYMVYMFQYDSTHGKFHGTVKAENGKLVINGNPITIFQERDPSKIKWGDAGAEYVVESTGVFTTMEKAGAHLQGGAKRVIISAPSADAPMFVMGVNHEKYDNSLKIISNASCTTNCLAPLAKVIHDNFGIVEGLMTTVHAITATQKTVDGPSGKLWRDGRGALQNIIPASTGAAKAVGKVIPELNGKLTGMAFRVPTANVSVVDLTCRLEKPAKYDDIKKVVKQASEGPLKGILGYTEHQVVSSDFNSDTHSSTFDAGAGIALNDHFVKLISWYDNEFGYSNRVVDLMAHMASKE

The nature of assay [2]: STM_H9_OrnCyssISnorm_ratio: Stemina devTOX quickPredict H9 human embryonic stem cell (hESC)-based Assay for Ornithine (ORN):Cystine (CYSS) Ratio (AID 2283714). Summed up:
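H9 hESC, 72h, q24h re-dose; last-day media → acetonitrile deproteinization → UPLC-HRMS. ORN:CYSS ratio from isotope-normalized EIC areas, vs 0.1% DMSO; MTX references on each plate.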

Read-out in assay [3]: alkyl and aryl transferase (GSTA2), GSTA2 (gene 2939)
Nature of the assay: CLD_GSTA2_48hr: CellzDirect (CLD) Gene Expression Assay for alkyl and aryl transferase (GSTA2) at 48 hours (AID 2283708).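 Further: active means mRNA induction above DMSO vehicle baseline.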 Summed up:
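GSTA2 mRNA quantified by qNPA chemiluminescence in human primary hepatocyte lysates after 48 h of daily fresh chemical dosing. Increases fitted against 0.2% DMSO vehicle baseline; cytotoxicity from morphology annotated yes/no.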

Read-out in assay [4]: glucuronosyltransferase (UGT1A1), UGT1A1 (gene 54658)
Kind of assay: CLD_UGT1A1_48hr: CellzDirect (CLD) Gene Expression Assay for glucuronosyltransferase (UGT1A1) at 48 hours (AID 2283709).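 Further: actives increase expression relative to DMSO so potency refers to induction.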 The procedure:
CLD_48hr is a cell-based, multiplexed-readout assay that uses hepatocyte, a human liver primary cell, with measurements taken at 48 hours after chemical dosing in a 96-well plate.CLD_UGT1A1_48hr is one of 16 assay component(s) measured or calculated from the CLD_48hr assay. It is designed to make measurements of mRNA induction, a form of inducible reporter, as detected with chemiluminescence signals by Quantitative Nuclease Protection Assay (qNPA) technology.Data from the assay component CLD_UGT1A1_48hr was analyzed at the endpoint, CLD_UGT1A1_48hr, in the positive analysis fitting direction relative to DMSO as the negative control and baseline of activity. […] Furthermore, this assay endpoint can be referred to as a primary readout. […]
Human hepatocyte cultures were treated daily for two consecutive days with fresh dosing solutions containing appropriate concentrations of the 320 ToxCast chemicals (chemical identities were blinded to CellzDirect and other ToxCast collaborators), vehicle control (0.2% DMSO), and positive control inducers as summarized in Table 1. […] Cultures for each treatment group (i.e., media, vehicle [0.2% DMSO], positive control inducers [multiple concentrations], and the ToxCast chemicals [multiple concentrations]) were observed and cell morphology was assessed relative to vehicle control cultures at each harvest time point (0, 6, 24, or 48 h). […]

Read-out in assay [5]: sulfotransferase (SULT2A), SULT2A1 (gene 6822)
Nature of the assay: CLD_SULT2A_48hr: CellzDirect (CLD) Gene Expression Assay for sulfotransferase (SULT2A) at 48 hours (AID 2283710).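 Further: hits raise SULT2A1 transcript above the 0.2% DMSO vehicle baseline.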 Summed up:
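SULT2A1 transcript measured by qNPA chemiluminescence in human primary hepatocyte cultures after 48 h, with fresh dosing solutions on two consecutive days; gain-of-signal fitting against 0.2% DMSO vehicle; cytotoxicity annotated from phase-contrast morphology.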

Read-out in assay [6]: Glyceraldehyde-3-phosphate dehydrogenase (Homo sapiens) (UniProt P04406)
Kind of assay: CLD_GAPDH_48hr: CellzDirect (CLD) Gene Expression Assay for Baseline Control (Glyceraldehyde 3-phosphate dehydrogenase) at 48 hours (AID 2283706).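 Further: active means higher GAPDH mRNA than DMSO vehicle.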 Summed up:
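GAPDH baseline-control readout: qNPA chemiluminescent mRNA quantitation in human liver primary cells 48 h after daily dosing on two consecutive days, vehicle 0.2% DMSO; gain of signal fitted against DMSO, cytotoxicity flagged by phase-contrast morphology.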

Read-out in assay [7]: HMG-CoA synthase (HMGCS2), HMGCS2 (gene 3158)
Nature of the assay: CLD_HMGCS2_48hr: CellzDirect (CLD) Gene Expression Assay for HMG-CoA synthase (HMGCS2) at 48 hours (AID 2283711). Summed up:
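mRNA induction read by qNPA chemiluminescence, 48 h after dosing. Cultured primary human liver cells (two donor preparations) received fresh compound daily over two days against 0.2% DMSO vehicle; morphology-based cytotoxicity noted alongside.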

A short description of assay [8]: STM_H9_OrnithineISnorm_perc: Stemina devTOX quickPredict H9 human embryonic stem cell (hESC)-based Assay for Ornithine (ORN) Metabolite Biomarker, Normalized (AID 2283712; active means hit-call score of the fitted dose curve at least 0.9, where 1 is the maximum; inactive means score below 0.9;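 further: ornithine released into spent medium during last day measured by mass spectrometry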). Summed up:
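Ornithine in spent medium from the last 24 h of a 72 h exposure, deproteinised and quantified by UPLC-HRMS against an isotope-labelled internal standard, expressed relative to 0.1% DMSO. Pluripotent H9 cells; compound refreshed every 24 h.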

The nature of assay [9]: STM_H9_CystineISnorm_perc: Stemina devTOX quickPredict H9 human embryonic stem cell (hESC)-based Assay for Cystine (CYSS) Metabolite Biomarker, Normalized (AID 2283713; active means hit-call score of the fitted dose curve at least 0.9, where 1 is the maximum; inactive means score below 0.9). Summed up:
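Cystine in spent media from the last 24 h of a 72 h H9 hESC exposure (daily re-dosing), measured by UPLC-HRMS. Values normalized to isotopic internal standard, then to 0.1% DMSO; viability via CellTiter-Fluor.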

The nature of assay [10]: CEETOX_H295R_MTT_cell_viability: Viability Assessment in the CeeTox HT-H295R MTT Assay (AID 2283718; active means hit-call score of the fitted dose curve at least 0.9, where 1 is the maximum; inactive means score below 0.9). Summed up:
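H295R cells prestimulated 48 h with 10 uM forskolin, then exposed 48 h to test chemical (0.1% DMSO final). Viability by MTT (0.5 mg/ml, 4 h, 37 C), absorbance 570/650 nm; percent change versus DMSO, bidirectional fit.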

Several values for one entry are separate records, joined by “and”; a condition that tells them apart may be missing. Identical values can stand only once. The entries are a selection whose mix differs from that of the whole data set. Inconclusive results are not listed. More than one record can exist for a structure, and the calls need not agree. Activity calls are given as the source filed them. How the source made its calls, unless noted: active means hit-call score of the fitted dose curve at least 0.9, where 1 is the maximum; inconclusive means response in the unintended direction; inactive means score below 0.9.

`Cc1cc([N+](=O)[O-])cc([N+](=O)[O-])c1O`: the AC50 in assay [1] was active: 2.1 µM.
`CN(C(=O)Cc1cccc2occc12)[C@H]1CC[C@@]2(CCCO2)C[C@@H]1N1CCCC1`: the compound was called inactive in [1].
For `O=[N+]([O-])c1ccc([N+](=O)[O-])cc1`, the AC50 in assay [2] is active: 79.8 µM.
On to `CC(C)OP(=S)(OC(C)C)SCCNS(=O)(=O)c1ccccc1`, for which the AC50 in assay [3] was active: 32 µM; in [4] it was active: 1.9 µM and active: 1.07 µM and active: 2.54 µM. Also, the result in assay [3], in [5] and in [1] was inactive.
As for `O=C1C2CC=CCC2C(=O)N1SC(Cl)(Cl)C(Cl)Cl` (stereo not drawn), the outcome in assay [6], in [3], in [4], in [5], in assay [7] and in [10] was inactive. For the same compound, the AC50 was active: 4.65 µM in [8], active: 1.16 µM in assay [9], active: 3.43 µM in [2] and active: 33 µM in assay [1].

The values are drawn from PubChem BioAssay (EPA / NIEHS).
